Binding of CDR-mutated scFvs to a peptide of the spike HR2 region

Values reported by Li et al. 2023, doi:10.1038/s41467-023-39022-2 (FLAb copy).

Target peptide (SARS-CoV-2 spike, HR2 region): PDVDLGDISGINAS

Parent: Ab-14, a human scFv built as VH, three GGGGS repeats, VL. Only the CDRs of the light chain vary.
VH: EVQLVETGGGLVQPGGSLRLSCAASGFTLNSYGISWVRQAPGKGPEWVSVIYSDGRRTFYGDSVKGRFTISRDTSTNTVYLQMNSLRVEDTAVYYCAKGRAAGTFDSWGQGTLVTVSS
VL: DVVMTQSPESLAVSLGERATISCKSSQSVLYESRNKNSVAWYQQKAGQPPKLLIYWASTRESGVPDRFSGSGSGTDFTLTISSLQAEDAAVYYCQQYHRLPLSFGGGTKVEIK

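Designed CDR sequences, proposed from the first random library and measured here. Their group label is 14L_Ctrl (Ctrl: baseline library sampled from a position-specific scoring matrix, with some repeated check sequences). AlphaSeq pools MATa yeast showing the antibodies with MATalpha yeast showing the peptide. The frequency of each diploid, read from paired DNA barcodes, reflects how well the two displayed proteins bind. Each replicate has its own calibration line, from reference interactions of the BCL2 family. Each pool was mated in six replicate cultures.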

Each variant is given by its three light chain CDRs, as the data file delimits them; those of the parent are KSSQSVLYESRNKNSVA, WASTRES, QQYHRLPLS. Scale: log10 of Kd in nM, estimated from mating counts; low values are strong binders. A mean of the replicates is given; it leaves out those without a signal. Where no diploid with the target was found in that replicate, the entry reads "nd": below detection, most likely a poor binder, though not proof of it.

| CDR-L1 | CDR-L2 | CDR-L3 | log10 Kd, replicates | mean log10 Kd (nM) | signal with controls |
|---|---|---|---|---|---|
| KSSQSVLYESRNKNSVA | WLSTRES | QQYHRLPLS | nd 2.66 nd nd nd 2.92 | 2.79 | 2 of 18 (2.12) |
| KNSVSVLYESRNKNSVA | WANTRES | QQYHRLPLS | nd nd nd nd nd nd | nd | 0 of 18 |
| KSSQSVLYESRWGNSVA | EASTREV | QQYHRLPLS | 1.28 2.00 1.31 2.12 1.10 1.20 | 1.50 | 0 of 18 |
| KSSQSVLYEQRNKNSVA | EASTRES | QQYHRLPLS | 0.63 0.50 0.46 0.48 0.28 0.99 | 0.56 | 2 of 18 (3.16) |
| HSSQSRLYESRNKNSVA | SCSTRES | QQYHRLPLS | nd nd nd nd nd nd | nd | 0 of 18 |
| KFSQSVLYETRNKNSVA | WASTRES | QQYHRLPLG | 1.24 2.03 1.83 1.89 1.15 1.42 | 1.59 | 0 of 18 |
| KSSQSVLVESRNKNSVA | WASTRES | QQYHRLPLS | 1.64 1.90 1.62 1.34 1.93 1.95 | 1.73 | 1 of 18 (3.57) |
| KLSQSVLYESRNKNSVA | YASERES | QQYHRLPLS | 0.50 0.77 0.47 0.59 0.47 0.79 | 0.60 | 0 of 18 |
| KSRQSVLYESINKNSVA | WASLRES | QQYHRLPLS | nd nd nd nd nd nd | nd | 1 of 18 (1.38) |
| KQSHSVDYETRGKNSVA | YASTRES | QQYHRLPLS | 1.68 1.78 nd 1.47 1.09 1.63 | 1.53 | 0 of 18 |
| KSSQSVLYESPNKNSVA | WAETRES | QQYHRLPLS | 1.87 2.11 nd 2.11 1.72 2.13 | 1.99 | 1 of 18 (2.53) |
| KSSRSVLYESRNKNSVA | WASIRES | QQYHRLPLS | 2.18 nd nd 2.81 nd nd | 2.49 | 2 of 18 (2.16) |
| KSSQSVLYESRNKGSVA | GASTRES | QQYHRLPLS | -0.16 -0.33 -0.29 -0.23 -0.32 -0.07 | -0.23 | 1 of 18 (2.70) |
| KSSLSVLYESLNKNSVA | WASTRES | QQYHRLPLS | nd 2.96 2.23 2.92 2.20 1.89 | 2.44 | 2 of 18 (1.75) |
| KSSQSVPYESRNKNSVA | WASTRES | QQYHRLPLS | nd 2.01 1.56 1.54 1.12 2.50 | 1.75 | 0 of 18 |
| KTSQSWLFEDRMSRSVA | GASTRES | QQYHRLPLS | 0.29 0.14 -0.05 0.03 -0.07 0.22 | 0.09 | 0 of 18 |
| HSSQSVLYESTLKNSVA | RASTRES | SQYHRAPLS | nd nd nd nd nd nd | nd | 1 of 18 (1.73) |
| KSSQSVLYESSNKNSVA | EASTRES | QQYHRLPLS | 0.53 0.43 0.34 0.43 0.56 0.57 | 0.48 | 2 of 18 (2.56) |
| KASQEVLYESRNKNSVA | WASTRES | QAYHRLPES | nd nd nd nd nd nd | nd | 0 of 18 |
| KMSQMVEYESRNKNSVA | WASTRES | QQYHRLPLS | nd nd nd nd nd nd | nd | 0 of 18 |
| KSSQSVLYESRNKNSVA | WATKRES | QQYHRLPTS | nd nd nd nd nd nd | nd | 0 of 18 |
| KSSQSVRYESRNVNSVA | WASTREL | QQYHRLPLY | nd nd nd 0.97 nd nd | 0.97 | 0 of 18 |
| KSSTHVLYESRNKNSVA | WASTRVS | QQYHRLPLS | nd nd nd nd nd nd | nd | 0 of 18 |
| KSSQSVLYISRNKNSVA | GASTRES | QQYHRLPLS | 2.38 4.42 1.72 1.40 2.00 1.81 | 2.29 | 0 of 18 |
| KSSQSVLYESRNKNSVA | DATTREW | QQYHRLPLS | 0.47 0.48 0.42 0.08 0.33 0.54 | 0.39 | 3 of 18 (2.68) |
| KSSQSVLYEWRNKNSVA | WASTRES | QQYFILPLS | 1.73 1.59 0.70 1.55 0.97 0.58 | 1.19 | 0 of 18 |
| KSSQDVLYEMRNVNSVA | WASTRES | QQYHRLPLS | nd nd nd 2.92 2.73 nd | 2.83 | 0 of 18 |
| KMSQSVLYESRNKNSVA | WASLRES | QQYHRLPLS | 0.19 0.18 0.26 0.39 0.37 0.37 | 0.29 | 0 of 18 |
| KSSPSVLYESQNKNSVA | MASTRES | QQYHRLPLS | 1.87 2.15 1.00 2.35 1.30 1.54 | 1.70 | 0 of 18 |
| KFSQSVLYESRNKNSVA | WASTRES | QQYFRLPLS | 0.18 -0.02 0.36 0.01 0.85 0.37 | 0.29 | 0 of 18 |
| KSSQSLLYESRNKNSFA | WASTRED | QQYHRLPLS | nd nd nd nd nd nd | nd | 0 of 18 |
| KSSQSFTYESRNKNSVA | HASTRES | DQYHRLPLS | nd nd nd nd nd nd | nd | 0 of 18 |
| KSSQSVIYESRNKNSVA | WGSTRES | QQYHRPPLS | nd nd nd nd nd nd | nd | 0 of 18 |
| KSSDSDLYEDRNKNQVA | WASTRET | QQYQRLPLS | 1.55 1.36 1.47 1.42 1.75 1.30 | 1.47 | 1 of 18 (1.90) |
| KSSQSVLNESRNDNSVA | SASTREA | QQYHRLPLS | 0.87 1.18 0.93 2.75 0.73 1.60 | 1.34 | 1 of 18 (1.63) |
| KSSQSVLKEHRFKNNVA | WASTRES | QQYHRLPLS | 1.98 1.70 1.54 2.13 2.09 1.68 | 1.85 | 0 of 18 |
| KSSQSVLYESRNKNSVA | WASLRES | QQYHRLPLS | nd nd nd nd nd nd | nd | 0 of 18 |
| KSSVSVLYEDRNKNSVA | WASTRES | QSYHRLPLS | nd 1.68 1.92 2.56 1.94 2.28 | 2.08 | 0 of 18 |
| KSSQSGLYEERNKNSVA | WASTRFS | QQYHRLPLS | nd 2.45 1.43 2.35 1.51 1.54 | 1.86 | 0 of 18 |
| KSSQSVLYESTNKNSVA | KASTRES | QQYHRLPLS | 0.70 0.99 1.04 0.99 0.91 0.86 | 0.91 | 0 of 18 |
| KSSQSVLYEARNKNSVA | KASTRES | QQYHRLPLS | 2.16 3.30 1.56 2.21 2.35 1.71 | 2.21 | 4 of 18 (2.73) |
| KSSQSVLGESRNKNSVA | WASTREY | QQKHRLPLS | nd nd nd nd nd nd | nd | 0 of 18 |
| KSSQSVLYESRNKNSVA | QASTRED | QQYHRLPLS | 0.27 -0.54 0.50 nd 0.15 -0.23 | 0.03 | 0 of 18 |
| KSSQSVRYESRNTNSVA | WASTRES | QQPHRLPLS | nd nd nd 2.00 nd nd | 2.00 | 0 of 18 |
| KSSQSVLYEHRNKNSCA | WASTRES | QQYHRLPLS | nd nd nd nd nd nd | nd | 0 of 18 |
| KSSQSVLYESRNVNSVA | WASTREQ | QQYHRLPLS | nd nd 1.97 nd nd nd | 1.97 | 0 of 18 |
| KIEQSVLYESRNKNSVA | LASTRES | QQYHRLPLS | 0.25 0.19 0.56 0.01 0.50 0.22 | 0.29 | 0 of 18 |
| KSSQSVLYESVNKNSVA | SASTRES | QQYHRLPLS | 0.12 0.14 0.23 -0.17 -0.01 0.06 | 0.06 | 1 of 18 (2.53) |
| KSSQSVLYASRNKNSVA | WASTRES | QQYHRLPLS | nd 1.86 1.79 2.31 nd 2.18 | 2.03 | 1 of 18 (2.76) |
| KFSQSVPYESRTKNSVA | EASTRES | QQYHRLPLS | 0.04 -0.29 -0.30 -0.43 -0.28 -0.07 | -0.22 | 0 of 18 |

Extract of 4 entries:

CDR-L1	CDR-L2	CDR-L3	log10 Kd, replicates	mean log10 Kd (nM)	signal with controls
KSSQSVLYESRWGNSVA	EASTREV	QQYHRLPLS	1.28 2.00 1.31 2.12 1.10 1.20	1.50	0 of 18
KSSQDVLYEMRNVNSVA	WASTRES	QQYHRLPLS	nd nd nd 2.92 2.73 nd	2.83	0 of 18
KSSQSVLYESTNKNSVA	KASTRES	QQYHRLPLS	0.70 0.99 1.04 0.99 0.91 0.86	0.91	0 of 18
KSSQSVLYESPNKNSVA	WAETRES	QQYHRLPLS	1.87 2.11 nd 2.11 1.72 2.13	1.99	1 of 18 (2.53)

As a blank, each scFv also met three strains without target: over all light chain designs, 4% of these pairings were detected, typically at 2.64 and seldom below 1.59. For each scFv, signals with the empty controls are counted beside the result, with their mean in brackets. The authors averaged sequences with at least three values out of six and counted those with two or fewer as poor binders. A sequence measured in both rounds can read differently, since the two assays cover different ranges.